Data as given in patent publication US9795646B2, “Boswellia oil, its fractions and compositions for enhancing brain function” (LAILA NUTRACEUTICALS, priority 2010, dated 2017).

Sequences of proteins named here, by UniProt entry; tags and fusion partners are left off. Residues count along the entry.
UniProt P22303, 32-614, species assumed: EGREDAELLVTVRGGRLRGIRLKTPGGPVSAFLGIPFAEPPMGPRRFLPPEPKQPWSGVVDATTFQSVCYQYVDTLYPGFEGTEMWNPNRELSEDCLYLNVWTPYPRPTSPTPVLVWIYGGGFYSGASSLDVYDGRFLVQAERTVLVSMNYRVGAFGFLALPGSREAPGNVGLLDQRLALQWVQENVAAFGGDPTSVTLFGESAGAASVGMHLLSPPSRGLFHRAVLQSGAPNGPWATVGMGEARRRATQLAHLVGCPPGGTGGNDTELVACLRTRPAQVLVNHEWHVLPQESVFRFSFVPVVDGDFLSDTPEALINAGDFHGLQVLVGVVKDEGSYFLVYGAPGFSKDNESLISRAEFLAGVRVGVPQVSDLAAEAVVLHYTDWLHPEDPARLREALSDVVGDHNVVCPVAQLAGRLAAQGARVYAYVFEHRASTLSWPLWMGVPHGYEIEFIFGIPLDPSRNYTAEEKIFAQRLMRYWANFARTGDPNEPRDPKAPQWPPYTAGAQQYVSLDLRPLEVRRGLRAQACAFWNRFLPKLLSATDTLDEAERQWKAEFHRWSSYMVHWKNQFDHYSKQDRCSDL

Molecular target: Acetylcholinesterase (Homo sapiens, UniProt P22303)
Assay: Acetylcholinesterase inhibitory activity, in vitro enzymatic assay (Ellman method)
Format: biochemical

CN(C)C(=O)Oc1cccc([N+](C)(C)C)c1 [Neostigmin]
% Inhibition at concentrations of 10 ng (Table 2): 25.17%
% Inhibition at concentrations of 10 ng (Table 3): 25.17%
% Inhibition at concentrations of 25 ng (Table 2): 37.19%
% Inhibition at concentrations of 25 ng (Table 3): 37.19%
% Inhibition at concentrations of 50 ng (Table 2): 54.69%
% Inhibition at concentrations of 50 ng (Table 3): 54.69%
